Test results published in patent US6632621B1, “G protein-coupled receptor-like receptors and modulators thereof” (priority 1999, dated 2003).
Like-named read-outs stand apart in the source and are kept apart here.

Target: T1, CEGPCR5 (Caenorhabditis elegans, UniProt Q18179)
T1 sequence (Q18179 1-402): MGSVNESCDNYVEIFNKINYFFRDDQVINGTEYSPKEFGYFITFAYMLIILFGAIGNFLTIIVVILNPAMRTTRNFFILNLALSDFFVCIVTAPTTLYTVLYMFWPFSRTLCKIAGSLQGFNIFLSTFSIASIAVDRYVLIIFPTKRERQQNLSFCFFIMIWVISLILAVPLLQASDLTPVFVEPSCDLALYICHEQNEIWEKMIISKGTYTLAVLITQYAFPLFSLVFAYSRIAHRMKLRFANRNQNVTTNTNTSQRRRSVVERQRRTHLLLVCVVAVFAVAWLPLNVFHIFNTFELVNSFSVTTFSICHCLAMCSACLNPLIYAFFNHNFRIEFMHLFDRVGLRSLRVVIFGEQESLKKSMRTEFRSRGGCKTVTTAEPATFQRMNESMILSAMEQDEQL
Assay: [35S]GTPγS binding assay, CEGPCR5 expressed in CHO cells
Type: biochemical, C. elegans
Procedure: Recombinant pCR3.1 clones encoding invertebrate GPCR-like receptors were transformed into wild-type CHO-K1 cells and functional expression was achieved using a temperature-shift incubation protocol. The CHO-K1 cells were cultured at 37° C. in a humidified atmosphere of 5% CO2 in air in DMEM medium supplemented with 10% heat-inactivated fetal bovine serum (i.e., FBS), 10 μg/ml gentamicin, and 0.1 mM nonessential amino acids to give complete DMEM medium. Additionally, for incubations at temperatures lower than 37° C., the medium was fortified with 10 mM HEPES (pH 7.4). Cells were transfected with recombinant pCR3.1 clones containing GPCR-like receptor DNAs, using LipofectAMINE PLUS™, essentially according to the manufacturer's instructions. […] In separate plastic tubes, PLUS (20 μl/plate; Life Technologies) was added to 0.75 ml/plate of recombinant plasmid DNA in OptiMEM (5 μg/plate; Gibco/BRL—Life Technologies), mixed and incubated at room temperature for 15 minutes. Separately, LipofectAMINE (30 μl/plate) was mixed with 0.75 ml OptiMEM and added to the pre-complexed DNA/PLUS mixture and incubated at room temperature for 15 minutes. The culture medium was then replaced with serum-free transfection medium (DMEM, 5 ml/plate). The DNA-PLUS-LipofectAMINE complex was then added to the plates (1.5 ml/plate) and mixed gently into the medium, followed by a 3 hour incubation at 37° C. in 5% CO2. At this time, the medium was supplemented with complete DMEM medium containing 20% FBS (6.5 ml/plate) and incubation was continued at 37° C. in 5% CO2. After a total of 24 hours at 37° C. in 5% CO2, the medium was replaced with complete DMEM medium fortified with 10 mM HEPES (10 ml/plate) and the cells were moved to an incubator maintained at 28-30° C. in a humidified atmosphere of 5% CO2 in air. The incubation continued for an additional 24 hours, typically at the lower temperature indicated above. A plasmid encoding Green Fluorescent Protein (i.e., GFP, 4 μg/plate) was used for transient GFP expression in CHO-K1 cells to estimate the transfection yields under the same conditions as used for GPCR-like receptor polynucleotides.
To assess expression, membranes were prepared from transfected CHO-K1 cells. Transfected cells were washed once with ice-cold Dulbecco's phosphate-buffered saline (i.e., PBS), 5 ml per 10 cm plate, and the cells were scraped into 5 ml of the same buffer. Cell suspensions from multiple plates were combined and centrifuged at 500×g for 10 minutes at 4° C. The cell pellet was reconstituted in ice-cold TEE (25 mM Tris, pH 7.4, 5 mM EGTA, 5 mM EDTA). […] Membrane protein concentration was determined using the BCA Protein Assay Reagent from Pierce (Rockford, Ill.), with bovine serum albumin (i.e., BSA) as a standard. […]

[1] = EC50 range, Table 9, one range for the group of peptides

## CC(C)C[C@H](NC(=O)[C@@H](N)Cc1ccccc1)C(=O)N[C@@H](CCCNC(=N)N)C(=O)N[C@@H](Cc1ccccc1)C(N)=O [FLRF-NH2]
  EC50: 80 to 800 nM

## CSCC[C@H](NC(=O)[C@@H](N)Cc1ccccc1)C(=O)N[C@@H](CCCN=C(N)N)C(=O)N[C@@H](Cc1ccccc1)C(N)=O [FMRF-NH2]
[1]
  EC50: 80 to 800 nM

## CC(C)C[C@H](NC(=O)[C@@H](N)Cc1ccc(O)cc1)C(=O)N[C@@H](CCCNC(=N)N)C(=O)N[C@@H](Cc1ccccc1)C(N)=O [YLRF-NH2]
[1]
  EC50: 80 to 800 nM

## CC[C@H](C)[C@H](NC(=O)[C@@H](N)Cc1ccc(O)cc1)C(=O)N[C@@H](CCCNC(=N)N)C(=O)N[C@@H](Cc1ccccc1)C(N)=O [YIRF-NH2]
  EC50: 1000 to 8000 nM
